In patent US20220153847A1 (Chugai, published 2022):

Columns and labels:
[1] = molecular target: T1, HLA-DQ2.5/avenin 3 peptide complex on Ba/F3 cells (human); test: FACS, Ba/F3 cells; IC17=0%, DQN0139bb=100%;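 further: flow cytometric binding of anti-HLA-DQ antibodies, each applied at 5 µg/mL for 30 min at room temperature, to Ba/F3 cell lines displaying HLA-DQ–peptide complexes; antibody tested at 5 microgram/mL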
T1 construct: whole, on cells; also called Ba/F3-HLA-DQ2.5/avenin 3

[2] = molecular target: T2, HLA-DQ2.5/secalin 1 peptide complex on Ba/F3 cells (human); test: FACS, Ba/F3 cells; IC17=0%, DQN0139bb=100%;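 further: flow cytometric binding of anti-HLA-DQ antibodies, each applied at 5 µg/mL for 30 min at room temperature, to Ba/F3 cell lines displaying HLA-DQ–peptide complexes; antibody tested at 5 microgram/mL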
T2 construct: whole, on cells; also called Ba/F3-HLA-DQ2.5/secalin 1

[3] = molecular target: T3, HLA-DQ2.5/alpha 1 gliadin peptide complex on Ba/F3 cells (human); test: FACS, Ba/F3 cells; IC17=0%, DQN0139bb=100%;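 further: flow cytometric binding of anti-HLA-DQ antibodies, each applied at 5 µg/mL for 30 min at room temperature, to Ba/F3 cell lines displaying HLA-DQ–peptide complexes; antibody tested at 5 microgram/mL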
T3 construct: whole, on cells; also called Ba/F3-HLA-DQ2.5/alpha 1 gliadin; HLA-DQ2.5/a1 gliadin

[4] = molecular target: T4, HLA-DQ2.5/33mer gliadin peptide complex on Ba/F3 cells (human); test: FACS, Ba/F3 cells; IC17=0%, DQN0139bb//IC17=100%;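 further: flow cytometry binding of anti-HLA-DQ antibodies at 5 µg/mL, incubated 30 min at room temperature with Ba/F3 lines presenting HLA-DQ/peptide complexes; antibody tested at 5 microgram/mL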
T4 construct: whole, on cells; also called Ba/F3-HLA-DQ2.5/33mer gliadin

HLA-DQ2.2 on Ba/F3 cells = molecular target: T5, HLA-DQ2.2 on Ba/F3 cells (human, UniProt P01909 24-216, limits assumed); test: FACS, Ba/F3 cells; IC17=0%, DQN0139bb=100%;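 further: flow cytometric binding of anti-HLA-DQ antibodies, each applied at 5 µg/mL for 30 min at room temperature, to Ba/F3 cell lines displaying HLA-DQ–peptide complexes; antibody tested at 5 microgram/mL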
T5 construct: whole, on cells; also called Ba/F3-HLA-DQ2.2

[5] = molecular target: T6, HLA-DQ2.5 on HLA-DQ2.5-positive PBMC B cells (human, UniProt P01909 24-254; P01920 33-261); test: FACS, PBMC B cells; IC17=0%, DQN0139bb=100%
T6 construct: whole, on cells; also called HLA-DQ2.5+ PBMC B cell

B1: DQN0385ee (antibody, V domains shown)
VH: QEQLEESGGDLVKPGASLTLTCTASGFSFYSSYWICWVRQAPGKGLEWIACIDTGSGSIDYASWVNGRFTISKTSSTTVTLQMTSLTVADTATYFCARDIGIDYNFWGPGTLVTVSS
VL: AFELTQTPSFVEAAVGGTVTIKCQATQSISSYLNWYQQKPGQPPKLLIYYASTLASGVPSRFKGSGSGTEFSLTISGVECADAATYYCHYGISYVSFGGGTKVEIK
notes: also called DQN0385xx
% MFI [1]: 1.1%
% MFI [2]: 13.7%

B2: DQN0429cc (antibody, V domains shown)
VH: QEQLVESGGGLVQPEGSLTLTCTASGFSFSSSYYMCWVRQAPGKGLEWIGCIYTGSGSTDYATWVNGRFTISKTSSTTVTLQMTSLTVADTATYFCARDIGIDYNFWGPGTLVTVSS
VL: AFELTQTPSFVEARVGGTVTIKCQATQSISSYLNWYQQKPGQPPKLLIYYASTLASGVPSRFKGSGSGTEFTLTISGVECADAATYYCHYGISYVSFGGGTKVEIK
notes: also called DQN0492cc
% MFI [3]: 5.4%

B3: DQN0385ee//IC17 (bispecific antibody, human IgG1, kappa)
heavy 1: QEQLEESGGDLVKPGASLTLTCTASGFSFYSSYWICWVRQAPGKGLEWIACIDTGSGSIDYASWVNGRFTISKTSSTTVTLQMTSLTVADTATYFCARDIGIDYNFWGPGTLVTVSSASTKGPSVFPLAPSSKSTSGGTAALGCLVKDYFPEPVTVSWNSGALTSGVHTFPAVLQSSGLYSLSSVVTVPSSSLGTQTYICNVNHKPSNTKVDKRVEPKSCDKTHTCPPCPAPELRRGPSVFLFPPKPKDTLMISRTPEVTCVVVDVSHEDPEVKFNWYVDGVEVHNAKTKPREEQYNSTYRVVSVLTVLHQDWLNGKEYKCKVSNKALPAPIEKTISKAKGQPREPQVYTLPPSREEMTKNQVSLTCLVKGFYPSDIAVEWESNGQPENNYKTTPPYLDSDGSFFLYSKLTVDKSRWQQGNVFSCSVMHEALHNHYTQESLSLSP
light 1: AFELTQTPSFVEAAVGGTVTIKCQATQSISSYLNWYQQKPGQPPKLLIYYASTLASGVPSRFKGSGSGTEFSLTISGVECADAATYYCHYGISYVSFGGGTKVEIKRTVAAPSVFIFPPSDEQLKSGTASVVCLLNNFYPREAKVQWKVDNALQSGNSQESVTEQDSKDCTYSLSSTLTLSKADYEKHKVYACEVTHQGLSSPVTKSFNRGEC
heavy 2: QVQLQQSGPQLVRPGASVKISCKASGYSFTSYWMHWVNQRPGQGLEWIGMIDPSYSETRLNQKFKDKATLTVDKSSSTAYMQLSSPTSEDSAVYYCALYGNYFDYWGQGTTLTVSSASTKGPSVFPLAPSSKSTSGGTAALGCLVKDYFPEPVTVSWNSGALTSGVHTFPAVLQSSGLYSLSSVVTVPSSSLGTQTYICNVNHKPSNTKVDKRVEPKSCDKTHTCPPCPAPELRRGPSVFLFPPKPKDTLMISRTPEVTCVVVDVSHEDPEVKFNWYVDGVEVHNAKTKPREEQYNSTYRVVSVLTVLHQDWLNGKEYKCKVSNKALPAPIEKTISKAKGQPREPQVYTLPPSRKEMTKNQVSLTCLVKGFYPSDIAVEWESNGQPENNYKTTPPYLDSDGSFFLYSKLTVDKSRWQQGNVFSCSVMHEALHNHYTQKSLSLSP
light 2: DIQMTQSSSSFSVSLGDRVTITCKASEDIYNRLAWYQQKPGNAPRLLISGATSLETGVPSRFSGSGSGKDYTLSITSLQTEDVATYYCQQYWSTPYTFGGGTKLEVKRTVAAPSVFIFPPSDEQLKSGTASVVCLLNNFYPREAKVQWKVDNALQSGNSQESVTEQDSKDSTYSLSSTLTLSKADYEKHKVYACEVTHQGLSSPVTKSFNRGEC
% MFI [4]: 73.9%

B4: DQN0344xx//DQN0429cc (bispecific antibody, human IgG1, kappa)
heavy 1: QSLEESGGGLVKPGGTLTLTCTASGFSFSSSYWMCWVRQAPGKGLEWVACVYGGSDTTYYASWTKGRFTISKGSSTTVALQVTSLTAADTATYFCARDPLNYYYYGELNLWGPGTLVTVSSASTKGPSVFPLAPSSKSTSGGTAALGCLVKDYFPEPVTVSWNSGALTSGVHTFPAVLQSSGLYSLSSVVTVPSSSLGTQTYICNVNHKPSNTKVDKRVEPKSCDKTHTCPPCPAPELRRGPSVFLFPPKPKDTLMISRTPEVTCVVVDVSHEDPEVKFNWYVDGVEVHNAKTKPREEQYNSTYRVVSVLTVLHQDWLNGKEYKCKVSNKALPAPIEKTISKAKGQPREPQVYTLPPSREEMTKNQVSLTCLVKGFYPSDIAVEWESNGQPENNYKTTPPYLDSDGSFFLYSKLTVDKSRWQQGNVFSCSVMHEALHNHYTQESLSLSP
light 1: AVVLTQTASPVSAAVGGTVTIRCQATENIYSGLAWYQQKPGQPPKVLIYYVSTLASGVPSRFKGSGSGTEYTLTISGVQCDDAATYYCQTYHDISNVTFGGGTKVEIKRTVAAPSVFIFPPSDEQLKSGTASVVCLLNNFYPREAKVQWKVDNALQSGNSQESVTEQDSKDCTYSLSSTLTLSKADYEKHKVYACEVTHQGLSSPVTKSFNRGEC
heavy 2: QEQLVESGGGLVQPEGSLTLTCTASGFSFSSSYYMCWVRQAPGKGLEWIGCIYTGSGSTDYATWVNGRFTISKTSSTTVTLQMTSLTVADTATYFCARDIGIDYNFWGPGTLVTVSSASTKGPSVFPLAPSSKSTSGGTAALGCLVKDYFPEPVTVSWNSGALTSGVHTFPAVLQSSGLYSLSSVVTVPSSSLGTQTYICNVNHKPSNTKVDKRVEPKSCDKTHTCPPCPAPELRRGPSVFLFPPKPKDTLMISRTPEVTCVVVDVSHEDPEVKFNWYVDGVEVHNAKTKPREEQYNSTYRVVSVLTVLHQDWLNGKEYKCKVSNKALPAPIEKTISKAKGQPREPQVYTLPPSRKEMTKNQVSLTCLVKGFYPSDIAVEWESNGQPENNYKTTPPYLDSDGSFFLYSKLTVDKSRWQQGNVFSCSVMHEALHNHYTQKSLSLSP
light 2: AFELTQTPSFVEARVGGTVTIKCQATQSISSYLNWYQQKPGQPPKLLIYYASTLASGVPSRFKGSGSGTEFTLTISGVECADAATYYCHYGISYVSFGGGTKVEIKRTVAAPSVFIFPPSDEQLKSGTASVVCLLNNFYPREAKVQWKVDNALQSGNSQESVTEQDSKDCTYSLSSTLTLSKADYEKHKVYACEVTHQGLSSPVTKSFNRGEC
% MFI [4]: 91.6%

B5: DQN0344xx (antibody, V domains shown)
VH: QSLEESGGGLVKPGGTLTLTCTASGFSFSSSYWMCWVRQAPGKGLEWVACVYGGSDTTYYASWTKGRFTISKGSSTTVALQVTSLTAADTATYFCARDPLNYYYYGELNLWGPGTLVTVSS
VL: AVVLTQTASPVSAAVGGTVTIRCQATENIYSGLAWYQQKPGQPPKVLIYYVSTLASGVPSRFKGSGSGTEYTLTISGVQCDDAATYYCQTYHDISNVTFGGGTKVEIK
% MFI (HLA-DQ2.2 on Ba/F3 cells): -0.1%
% MFI [5]: -0.1%
